These results are taken from US6342503B1, “1N-alkyl-n-arylpyrimidinamines and derivatives thereof” (DuPont Pharmaceuticals Company, priority 1993, dated 2002).

Amino acid sequences for entries named in this document (tags omitted). Residues count along the entry.
UniProt P35353, 24-415 limits assumed: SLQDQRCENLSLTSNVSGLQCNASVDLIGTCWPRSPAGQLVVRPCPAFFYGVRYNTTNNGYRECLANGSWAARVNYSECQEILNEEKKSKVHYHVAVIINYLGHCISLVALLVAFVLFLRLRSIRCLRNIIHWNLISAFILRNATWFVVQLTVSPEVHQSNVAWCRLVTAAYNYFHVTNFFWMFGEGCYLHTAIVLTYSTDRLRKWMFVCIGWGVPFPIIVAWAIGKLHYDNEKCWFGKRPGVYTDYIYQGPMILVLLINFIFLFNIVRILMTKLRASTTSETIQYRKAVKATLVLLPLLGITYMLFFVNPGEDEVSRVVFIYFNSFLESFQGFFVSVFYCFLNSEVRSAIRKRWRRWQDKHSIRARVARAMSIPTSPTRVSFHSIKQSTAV

SMILES strings stand for the structures.

As a reminder, the Ki is the dissociation constant of the complex between target and ligand, obtained from inhibition or displacement.

The first test deals with CRF receptor (Rattus norvegicus, UniProt P35353). Put plainly: In vitro CRF receptor binding assay (competition with [125I] ovine CRF, rat cortex membranes). To be noted: read-out: Inhibition Ki, 2 h at 22° C., Ki classes.
`CCN(c1nc(C)cc(OCC2CCCS2)n1)c1ccc(C(C)C)cc1Br` (single isomer, unassigned): the Ki was less than 500 nM.

On to `CCN(c1nc(C)cc(Cn2ccnc2)n1)c1ccc(C(C)C)cc1Br`, for which the Ki was less than 500 nM.

With `CCN(c1nc(C)cc(C(=O)c2ccc3[nH]ccc3c2)n1)c1ccc(C(C)C)cc1Br`, the Ki is less than 500 nM.

As to `CCN(c1nc(C)cc(C(F)(F)F)n1)c1ccc(C(C)C)cc1Br`, the Ki was less than 500 nM.

For `CCN(c1nc(C)cc(C(O)(c2ccncc2)c2ccncc2)n1)c1ccc(C(C)C)cc1Br`, the Ki was less than 500 nM.

For the compound `CCN(c1nc(C)cc(OCC2CCCO2)n1)c1ccc(C(C)C)cc1Br` (stereo not drawn), the Ki is less than 500 nM.

As to `CCN(c1nc(C)cc(C(=O)c2ccc(F)cc2)n1)c1ccc(C(C)C)cc1Br`, the inhibitory constant (Ki) is less than 500 nM.

As for `COc1cc(Br)c(N(c2nc(C)nc(N3CCOCC3)n2)C(C)C)c(OC)c1`, the Ki is less than 500 nM.

For `CCN(c1nc(C)cc(C(=O)N(C)Cc2ccco2)n1)c1ccc(C(C)C)cc1Br`, the Ki is less than 500 nM.

Regarding `Cc1cc(C)nc(N(C)c2ccc(C(F)(F)F)cc2Br)n1`, the Ki was 501 to 2000 nM.

Take `CCN(c1nc(C)cc(C(O)c2cccnc2)n1)c1ccc(C(C)C)cc1Br` (stereo not drawn): the inhibitory constant (Ki) was less than 500 nM.

As to `CCN(c1nc(C)cc(C(C)c2nn[nH]n2)n1)c1ccc(C(C)C)cc1Br` (stereo not drawn), the Ki was less than 500 nM.

For `CCN(c1nc(C)cc(C(=O)N2CCC(=O)CC2)n1)c1ccc(C(C)C)cc1Br`, the Ki was less than 500 nM.

`Cc1cc(C)nc(N(C)c2ccc(Br)cc2Br)n1`: the inhibitory constant (Ki) was less than 500 nM.

With `COc1cc(Br)c(-n2cc(C#N)c3c(C)cc(C)nc32)c(OC)c1`, the Ki was less than 500 nM.

For `CCN(c1nc(C)cc(NCc2cccnc2)n1)c1ccc(C(C)C)cc1Br`, the Ki was less than 500 nM.

On to `CCN(c1nc(C)cc(C(O)(c2ccc(OC)cc2)c2cccnc2)n1)c1ccc(C(C)C)cc1Br` (stereo not drawn), for which the Ki was less than 500 nM.

With `CCN(c1nc(C)cc(C(C)N)n1)c1ccc(C(C)C)cc1Br` (stereo not drawn), the Ki was less than 500 nM.

On to `CCN(c1nc(C)cc(C(=O)N2CCN(c3cnccn3)CC2)n1)c1ccc(C(C)C)cc1Br`, for which the Ki was 2000 to 10000 nM.

For the compound `CCN(c1nc(C)cc(C(C)=O)n1)c1ccc(C(C)C)cc1Br`, the Ki is less than 500 nM.

On to `COc1cc(Br)c(-n2ccc3c(C)cc(C)nc32)c(OC)c1`, for which the inhibition constant (Ki) was less than 500 nM.

In the case of `CCN(c1nc(C)cc(COCc2cccc(OC)c2)n1)c1ccc(C(C)C)cc1Br`, the Ki was less than 500 nM.

In the case of `COc1cc(OC)c(Nc2nc(C)cc(C)n2)cc1Br`, the Ki is 2000 to 10000 nM.

Take `CCN(c1nc(C)cc(OCCN2CCOCC2)n1)c1ccc(C(C)C)cc1Br`: the Ki is less than 500 nM.

Turning to `CCN(c1nc(C)cc(C(O)(c2ccco2)c2ccco2)n1)c1ccc(C(C)C)cc1Br`, the Ki was less than 500 nM.

On to `CCN(c1nc(C)cc(N2CCC(O)CC2)n1)c1ccc(C(C)C)cc1Br`, for which the Ki was less than 500 nM.

Staying with this test, now noted: read-out: Inhibition Ki, 2 h at 22° C., Ki classes, tested form: HCl.
As to `CCN(c1nc(C)cc(-c2cc[nH]n2)n1)c1ccc(C(C)C)cc1Br`, the Ki lay within 501 to 2000 nM.

In the case of `CCN(c1ccc(OC)nc1)c1nc(C)cc(C)n1`, the Ki fell in the range of 501 to 2000 nM.

As for `CCN(c1nc(C)nc(N2CCOCC2)n1)c1ccc(OC)nc1Br`, the Ki is less than 500 nM.

As for `CCN(c1nc(C)cc(NCCc2cnc[nH]2)n1)c1ccc(C(C)C)cc1Br`, the Ki is less than 500 nM.

Consider `CCc1cc(CC)nc(N(CC)c2ccc(C(C)C)cc2Br)n1`, for which the Ki was less than 500 nM.

As to `Cc1cc(C)nc(N(C)c2ccc(C(C)C)cc2Br)c1`, the Ki was 2000 to 10000 nM.

In the case of `Cc1cc(C)nc(N(CC#N)c2ccc(C(C)C)cc2Br)n1` [compound 32], the Ki lay within 2000 to 10000 nM.

With `CCOCCc1ccc(N(CC)c2nc(C)cc(C)n2)c(Br)c1`, the inhibitory constant (Ki) is less than 500 nM.

`C=CCN(c1nc(C)cc(C)n1)c1ccc(C(C)C)cc1Br`: the Ki is less than 500 nM.

Turning to `CCN(c1nc(C)cc(C)n1)c1ccc(OC)nc1Br`, the Ki is less than 500 nM.

As to `CCN(c1nc(C)cc(C)n1)c1ccc(C(C)C)cc1I`, the inhibition constant Ki was less than 500 nM.

As for `C=CCN(c1nc(C)cc(C)n1)c1ccc(CCCC)cc1Br`, the Ki was less than 500 nM.

With `CCN(c1nc(C)cc(C)n1)c1ncc(C)cc1Br`, the inhibition constant Ki was in the range of 2000 to 10000 nM.

For the compound `CCN(c1nc(C)cc(C)n1)c1ccc(C(F)(F)F)cc1Br`, the Ki was less than 500 nM.

Consider `CCN(c1nc(C)cc(CN2CCC(=O)CC2)n1)c1ccc(C(C)C)cc1Br`, for which the Ki was less than 500 nM.

Consider `CCN(c1nc(C)cc(C)n1)c1ccc(C(C)(C)C)cc1Br`, for which the Ki is less than 500 nM.
